This data set is described as follows: Half life in human. The format is ADME, organism-based. The conditions noted are these: in vivo.

In the case of `CC[C@H]1OC(=O)[C@H](C)[C@@H](O[C@H]2C[C@@](C)(OC)[C@@H](O)[C@H](C)O2)[C@H](C)[C@@H](O[C@@H]2O[C@H](C)C[C@H](N(C)C)[C@H]2O)[C@](C)(O)C[C@@H](C)C(=O)[C@H](C)[C@@H](O)[C@]1(C)O` [ERYTHROMYCIN], the half-life was 2 h.

These data come from ChEMBL document CHEMBL3588773, “Volume of Distribution in Drug Design” (J Med Chem, 2015).
